# According to publication PMC2890073 (Immunogenetics, 2010):
# Test system: Mamu-B*08301
sequence,measurement,value
FPFKYAAAF,direct binding of radiolabeled ligand to purified Mamu-B*08301,did not bind
